Earlier results, collected in article PMC9574855 (Journal of Medicinal Chemistry, 2022).

Assays:
PIK3CB = details: 1 μM; cited from earlier work
403 WT human kinases = details: 1 μM, published data, YM201636; cited from earlier work

Q: Which results are given for Nc1ccc(C(=O)Nc2cccc(-c3nc(N4CCOCC4)c4oc5ncccc5c4n3)c2)cn1 [YM201636, 6-amino-N-[3-[4-(4-morpholinyl)pyrido[3',2':4,5]furo[3,2-d]pyrimidin-2-yl]phenyl]-3-pyridinecarboxamide]?
A: PIK3CB percent of control (PoC) (PIK3CB): 9.8 PoC; # scanMAX kinases with PoC < 10 (403 WT human kinases): 2
